Cyclic peptide permeability, from CycPeptMPDB

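Lipid, pH, incubation time, direction and concentration are not recorded in the data file. The list need not hold all peptides of the study. Entries at the database's floor value (log10 P of -10) are not listed.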

PAMPA is the parallel artificial membrane permeability assay, which has no cells and reads passive diffusion. Permeability is given as log10 of P in cm/s; higher (less negative) is more permeable.

* CC(C)C[C@@H]1C(=O)N(Cc2ccccc2)CC(=O)N2CCC[C@H]2C(=O)N(C)[C@H](CC(C)C)C(=O)N[C@@H](Cc2ccccc2)C(=O)N2CCC[C@@H]2C(=O)N[C@H](C)C(=O)N1C: PAMPA -5.45 (log10 cm/s)
* CC(C)C[C@H]1C(=O)N(Cc2ccccc2)CC(=O)N2CCC[C@@H]2C(=O)N(C)[C@@H](CC(C)C)C(=O)N[C@@H](Cc2ccccc2)C(=O)N2CCC[C@@H]2C(=O)N(C)[C@H](C)C(=O)N1C: PAMPA -5.42 (log10 cm/s)
* CC(C)C[C@H]1C(=O)N[C@@H](Cc2ccccc2)CC(=O)N2CCC[C@H]2C(=O)N(Cc2ccccc2)CC(=O)N[C@@H](Cc2ccccc2)C(=O)N2CCC[C@H]2C(=O)N(C)[C@H](C)C(=O)N1C: PAMPA -5.90 (log10 cm/s)
* CC(C)C[C@H]1NC(=O)[C@@H](C)NC(=O)[C@H](Cc2ccccc2)NC(=O)[C@H](CC(C)C)N(C)C(=O)[C@H]2CCCN2C(=O)[C@H](CC(C)C)N(C)C1=O: PAMPA -5.50 (log10 cm/s)
* CC(C)C[C@@H]1C(=O)N[C@@H](Cc2ccccc2)C(=O)N2CCC[C@H]2C(=O)N(C)[C@@H](C)C(=O)N(Cc2ccccc2)CC(=O)N[C@H](CC(C)C)C(=O)N2CCC[C@H]2C(=O)N1C: PAMPA -5.22 (log10 cm/s)
* CC(C)C[C@@H]1NC(=O)[C@@H](CC(C)C)NC(=O)[C@@H](C)N(C)C(=O)[C@H]2CCCN2C(=O)[C@H](Cc2ccccc2)NC(=O)[C@@H](CC(C)C)N(C)C(=O)[C@@H]2CCCN2C1=O: PAMPA -5.58 (log10 cm/s)
* CC(C)C[C@@H]1C(=O)N(C)[C@@H](CC(C)C)C(=O)N2CCC[C@@H]2C(=O)N(C)[C@H](CC(C)C)C(=O)N[C@@H](Cc2ccccc2)C(=O)N2CCC[C@@H]2C(=O)N(C)[C@H](C)C(=O)N1C: PAMPA -5.57 (log10 cm/s)
* CC(C)C[C@@H]1NC(=O)CN(Cc2ccccc2)C(=O)C[C@H](Cc2ccccc2)NC(=O)[C@H]2CCCN2C(=O)[C@H](Cc2ccccc2)NC(=O)[C@@H](CC(C)C)N(C)C(=O)[C@H]2CCCN2C1=O: PAMPA -5.38 (log10 cm/s)
* CC(C)C[C@H]1NC(=O)[C@@H]2CCCN2C(=O)[C@H](CC(C)C)N(C)C(=O)[C@@H](CC(C)C)NC(=O)C[C@H](Cc2ccccc2)NC(=O)[C@@H]2CCCN2C(=O)[C@H](Cc2ccccc2)NC1=O: PAMPA -5.87 (log10 cm/s)
* CCCN1CC(=O)N[C@H](CC(C)C)C(=O)N(Cc2ccccc2)CC(=O)N2CCC[C@H]2C(=O)N(Cc2ccccc2)CC(=O)N[C@@H](Cc2ccccc2)C(=O)N2CCC[C@@H]2C1=O: PAMPA -5.84 (log10 cm/s)
* CC(C)C[C@@H]1C(=O)N[C@@H](Cc2ccccc2)CC(=O)N2CCC[C@@H]2C(=O)N(C)[C@@H](CC(C)C)C(=O)N[C@@H](Cc2ccccc2)C(=O)N2CCC[C@H]2C(=O)N[C@@H](C)C(=O)N1C: PAMPA -6.23 (log10 cm/s)
* CCCN1CC(=O)N[C@H](CC(C)C)C(=O)N(Cc2ccccc2)CC(=O)N2CCC[C@@H]2C(=O)N[C@H](CC(C)C)C(=O)N[C@@H](Cc2ccccc2)C(=O)N2CCC[C@@H]2C1=O: PAMPA -5.60 (log10 cm/s)
* CC(C)C[C@@H]1NC(=O)[C@@H](C)NC(=O)[C@H](Cc2ccccc2)NC(=O)CN(Cc2ccccc2)C(=O)[C@@H]2CCCN2C(=O)CN(Cc2ccccc2)C1=O: PAMPA -6.22 (log10 cm/s)
* CC(C)C[C@@H]1NC(=O)CN(Cc2ccccc2)C(=O)[C@@H](C)N(C)C(=O)[C@H]2CCCN2C(=O)[C@H](Cc2ccccc2)NC(=O)CN(Cc2ccccc2)C(=O)[C@H]2CCCN2C1=O: PAMPA -6.56 (log10 cm/s)
* CC(C)C[C@@H]1NC(=O)[C@@H](C)NC(=O)[C@H](Cc2ccccc2)NC(=O)[C@@H](CC(C)C)NC(=O)[C@H]2CCCN2C(=O)C[C@H](Cc2ccccc2)NC1=O: PAMPA -5.06 (log10 cm/s)
* CC(C)C[C@@H]1NC(=O)[C@@H](C)N(C)C(=O)[C@@H]2CCCN2C(=O)[C@H](Cc2ccccc2)NC(=O)[C@H](CC(C)C)N(C)C(=O)[C@@H]2CCCN2C(=O)[C@H](CC(C)C)N(C)C1=O: PAMPA -5.42 (log10 cm/s)
* CC(C)C[C@H]1NC(=O)[C@@H](C)N(C)C(=O)[C@@H]2CCCN2C(=O)[C@H](Cc2ccccc2)NC(=O)CN(Cc2ccccc2)C(=O)[C@H]2CCCN2C(=O)[C@@H](CC(C)C)NC1=O: PAMPA -5.65 (log10 cm/s)
* CC(C)C[C@@H]1NC(=O)C[C@H](Cc2ccccc2)NC(=O)[C@@H]2CCCN2C(=O)[C@H](Cc2ccccc2)NC(=O)[C@H](CC(C)C)N(C)C(=O)[C@@H]2CCCN2C(=O)[C@H](CC(C)C)N(C)C1=O: PAMPA -5.28 (log10 cm/s)

Extract of 2 entries:

| SMILES | PAMPA (log10 cm/s) |
|---|---|
| CC(C)C[C@@H]1NC(=O)[C@@H](C)NC(=O)[C@H](Cc2ccccc2)NC(=O)CN(Cc2ccccc2)C(=O)[C@@H]2CCCN2C(=O)CN(Cc2ccccc2)C1=O | -6.22 |
| CC(C)C[C@@H]1C(=O)N(C)[C@@H](CC(C)C)C(=O)N2CCC[C@@H]2C(=O)N(C)[C@H](CC(C)C)C(=O)N[C@@H](Cc2ccccc2)C(=O)N2CCC[C@@H]2C(=O)N(C)[C@H](C)C(=O)N1C | -5.57 |

Collected by the curators of CycPeptMPDB (Li et al. 2023) from Townsend et al. 2020, doi:10.26434/chemrxiv.13335941.v1.